Measured affinities in a library of Ab-14 light chain variants

Values reported by Li et al. 2023, doi:10.1038/s41467-023-39022-2 (FLAb copy).

Target: peptide PDVDLGDISGINAS, taken from heptad repeat 2 (HR2) of SARS-CoV-2 spike.

Each scFv is VH, the linker GGGGSGGGGSGGGGS, VL, as in the parent Ab-14, and differs from it in the CDRs of the light chain only.
VH: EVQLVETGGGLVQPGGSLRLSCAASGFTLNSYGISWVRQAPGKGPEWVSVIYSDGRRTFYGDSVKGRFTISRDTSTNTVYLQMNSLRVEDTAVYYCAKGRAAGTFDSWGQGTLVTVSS
VL: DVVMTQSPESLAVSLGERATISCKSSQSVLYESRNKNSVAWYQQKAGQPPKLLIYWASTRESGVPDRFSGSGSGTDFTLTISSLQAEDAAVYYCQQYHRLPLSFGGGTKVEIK

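The parent was found by panning a naive human phage display library on the peptide. Designed CDR sequences, proposed from the first random library and measured here. Their group label is 14L_Ctrl (Ctrl: baseline library sampled from a position-specific scoring matrix, with some repeated check sequences). The assay is AlphaSeq: two haploid yeast populations carry antibody and antigen on their surface. The frequency of each diploid, read from paired DNA barcodes, reflects how well the two displayed proteins bind. Each replicate has its own calibration line, from reference interactions of the BCL2 family. The assay was run in six technical replicates.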

Changes read parent residue, position, new residue, counted from the first residue of the VL shown.
The read-out is the apparent dissociation constant on a log10 scale (nM): the lower, the stronger.
Averages over replicates are reported, and they cover detected replicates only.
A pair that was not seen in that replicate is written "ND"; this usually means weak binding, but a binder can also be missed.
Of ten entries with the parent sequence, four were seen in most replicates (averages 0.34 to 2.37), three in one and three in none, so single entries are noisy.

| changes | replicates, log10 nM | mean log10 Kd (nM) | control signals |
|---|---|---|---|
| S25G K36T A40S | ND ND ND ND ND ND | ND | 1/18 (1.50) |
| R34T W56E | 0.76 0.66 0.45 0.57 0.61 0.80 | 0.64 | 2/18 (1.90) |
| S25L V29L | 1.67 0.84 0.97 0.50 0.29 0.91 | 0.86 | 0/18 |
| S33G S38G W56D | 0.63 0.89 0.38 0.51 0.39 0.64 | 0.57 | 2/18 (2.61) |
| Q27G S28G Y97C | ND 2.60 2.08 2.76 2.57 ND | 2.50 | 1/18 (1.85) |
| L30F Y31D W56E R99Y L102I | ND ND 2.72 2.97 2.80 ND | 2.83 | 1/18 (2.65) |
| V29L S33W W56R T59K | ND ND ND ND ND ND | ND | 0/18 |
| Q27M | 1.34 ND 1.98 1.67 0.97 1.67 | 1.53 | 1/18 (1.58) |
| N35R W56N Q96R | 3.11 3.30 3.37 ND 3.62 ND | 3.35 | 2/18 (3.01) |
| S33E W56Q R99H | 0.43 0.37 0.16 0.14 0.10 0.22 | 0.24 | 0/18 |
| R34I S38G W56G | 0.50 0.44 1.12 0.91 1.15 0.96 | 0.85 | 0/18 |
| S25F S33E T59I | 0.44 0.71 0.70 0.77 1.14 1.00 | 0.79 | 1/18 (2.32) |
| L30P R34E K36A P101E S103P | ND 1.83 ND ND ND ND | 1.83 | 0/18 |
| N37G R99A | ND ND ND ND ND ND | ND | 0/18 |
| L30D Y31E W56A | -0.07 0.05 -0.10 -0.19 -0.06 0.04 | -0.06 | 2/18 (2.70) |
| V29F S33E N35Y W56K | 0.80 1.18 1.00 0.87 1.66 0.89 | 1.07 | 1/18 (1.97) |
| L30Q R34N H98R | 1.69 1.17 1.25 1.54 0.82 0.99 | 1.24 | 1/18 (2.46) |
| Q27H R34L | 1.87 0.74 ND 1.01 1.90 1.35 | 1.37 | 0/18 |
| Y31E R34W W56N S103H | 2.20 1.18 0.95 1.29 0.99 1.06 | 1.28 | 1/18 (3.19) |
| S33G E61V | 1.26 1.58 1.57 2.14 1.63 1.30 | 1.58 | 0/18 |
| S25F S26D L30Y E32L W56G R99G P101S | 1.46 1.01 0.96 1.80 1.50 1.87 | 1.43 | 0/18 |
| Y31W N35G | ND ND 2.67 ND ND ND | 2.67 | 1/18 (1.50) |
| K24Q Q27Y V29I S33K W56N H98Q | 1.14 0.69 0.17 0.42 0.67 0.79 | 0.65 | 0/18 |
| S25Y S26V W56E | 0.27 0.17 0.23 0.16 0.12 0.19 | 0.19 | 0/18 |
| S25L Y31A N37G H98I | 0.96 1.41 1.36 1.27 0.76 0.84 | 1.10 | 2/18 (2.31) |
| V29L R99H | 1.18 0.90 1.09 1.22 1.98 2.13 | 1.42 | 0/18 |
| S28A V29W S33Q W56Q | ND ND ND ND ND ND | ND | 0/18 |
| Q27F R34F S58Y | ND ND 1.81 ND 1.85 ND | 1.83 | 1/18 (1.11) |
| S25M S26T Y31E E32I R99Q | ND 2.09 1.36 1.15 2.13 1.31 | 1.61 | 0/18 |
| L30S Y31P R34A | 1.31 1.80 1.13 1.43 ND 1.38 | 1.41 | 1/18 (1.74) |
| S28E L30Y E32Q | ND ND ND ND 1.58 ND | 1.58 | 0/18 |
| E61W Y97P | ND 1.35 ND ND ND ND | 1.35 | 0/18 |
| V29W W56E Q95D | 0.07 0.60 0.09 -0.50 ND 0.56 | 0.16 | 0/18 |
| W56D L100W P101I | ND ND ND ND ND ND | ND | 0/18 |
| Y31E E32T W56G S58V | 0.65 0.65 0.72 0.77 0.70 0.67 | 0.70 | 0/18 |
| S25A L102N | ND 3.50 ND ND ND ND | 3.50 | 1/18 (3.59) |
| S26D Y31D W56E | 0.05 0.14 -0.14 -0.05 0.07 0.34 | 0.07 | 0/18 |
| E61T Q96T | ND ND ND 2.37 2.86 ND | 2.61 | 1/18 (1.98) |
| S25M | 0.97 0.97 1.03 0.52 0.51 1.07 | 0.84 | 1/18 (2.24) |
| Q27D E32I | ND ND ND ND ND ND | ND | 0/18 |
| S33M | ND 2.28 ND ND ND ND | 2.28 | 1/18 (2.41) |
| V29Y K36T W56G A57V L100A | ND ND ND ND 2.28 ND | 2.28 | 1/18 (2.90) |

Repeated from above, the 5 best binders with a signal in all replicates:

{"changes": "L30D Y31E W56A", "replicates, log10 nM": "-0.07 0.05 -0.10 -0.19 -0.06 0.04", "mean log10 Kd (nM)": "-0.06", "control signals": "2/18 (2.70)"}
{"changes": "S26D Y31D W56E", "replicates, log10 nM": "0.05 0.14 -0.14 -0.05 0.07 0.34", "mean log10 Kd (nM)": "0.07", "control signals": "0/18"}
{"changes": "S25Y S26V W56E", "replicates, log10 nM": "0.27 0.17 0.23 0.16 0.12 0.19", "mean log10 Kd (nM)": "0.19", "control signals": "0/18"}
{"changes": "S33E W56Q R99H", "replicates, log10 nM": "0.43 0.37 0.16 0.14 0.10 0.22", "mean log10 Kd (nM)": "0.24", "control signals": "0/18"}
{"changes": "S33G S38G W56D", "replicates, log10 nM": "0.63 0.89 0.38 0.51 0.39 0.64", "mean log10 Kd (nM)": "0.57", "control signals": "2/18 (2.61)"}

The authors' rule: three or more of the six replicates give a measured affinity, fewer mean a poor binder.
A sequence measured in both rounds can read differently, since the two assays cover different ranges.
Three control strains display no target. For all light chain designs, 4% of the pairings with them gave a signal, with a median of 2.64 and one signal in twenty below 1.59, so weak values seen in few replicates may be background. For each scFv, signals with the empty controls are counted beside the result, with their mean in brackets.